{"source": "PubChem BioAssay AID1825", "about": "(The Scripps Research Institute Molecular Screening Center, 2009)", "note": "This is a selection; strong and weak results do not stand in their true shares. Some tests of the compounds listed are not included; inactive here does not mean inactive elsewhere. Active and inactive are the calls of the source. No stated cut-off is given here; in the data, active means inhibition above about 22%; inactive means the rest.", "data": [{"test": "IEC-6 cell viability reduction – luminescence, cytotoxicity control for KLF5 inhibitor project, primary screen (AID 1825);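 further: 0% = plate median of test compound wells and 100% = cytotoxic reference compound wells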", "settings": "IEC-6 cytotoxicity, at 5 µM, stronger effect = higher value", "values": [{"smiles": "Cc1ccccc1C(=O)NCC1(N2CCCCC2)CCCCC1", "inhibition": "inactive: 9.1%"}, {"smiles": "CN(C)c1ccc(C(=O)NCC2(N(C)C)CCCCC2)cc1", "inhibition": "inactive: 3%"}, {"smiles": "CN(C)C1CCCC1OC(=O)C(O)(c1ccccc1)c1ccccc1", "note": "(centres undefined)", "inhibition": "inactive: 1.9%"}, {"smiles": "COc1ccc(C(=O)NCC2(N(C)C)CCCCC2)cc1", "inhibition": "inactive: 6.5%"}, {"smiles": "CCN1CCCC(OC(=O)C2(O)c3ccccc3C=Cc3ccccc32)C1", "note": "(centres undefined)", "inhibition": "inactive: 2.3%"}, {"smiles": "Cc1cc(C(=O)NCC2(N3CCCCC3)CCCCC2)ccc1[N+](=O)[O-]", "inhibition": "inactive: 10%"}, {"smiles": "O=C(NCC1(N2CCCCC2)CCCCC1)c1cccc(Br)c1", "inhibition": "inactive: 2.8%"}, {"smiles": "C=CCN1CCN(CCOC(=O)C(O)(c2ccccc2)c2ccccc2)CC1", "inhibition": "inactive: -2.3%"}, {"smiles": "O=C(NCC1(N2CCCCC2)CCCCC1)c1cc(F)c(F)cc1Cl", "inhibition": "inactive: -1.5%"}, {"smiles": "CN1[C@@H]2CC[C@H]1CC(OC(=O)C(O)(c1ccccc1)c1ccccc1)C2", "note": "(some centres undefined)", "inhibition": "inactive: -2.2%"}, {"smiles": "O=C(NCC1(N2CCCCC2)CCCCC1)c1cc([N+](=O)[O-])ccc1Cl", "inhibition": "inactive: 0.1%"}, {"smiles": "Cc1ccc(C(=O)NCC2(N3CCCCC3)CCCCC2)cc1", "inhibition": "inactive: 5%"}, {"smiles": "CCN(CC)CC(C)C(C)OC(=O)C(O)(c1ccccc1)c1ccccc1", "note": "(centres undefined)", "inhibition": "inactive: -5.1%"}, {"smiles": "COc1cc(SC)ccc1C(=O)NCC1(N(C)C)CCCCC1", "inhibition": "inactive: 1.6%"}, {"smiles": "CC(C)N1C(=O)CC2(CCN(CCOC(=O)C(O)(c3ccccc3)c3ccccc3)CC2)C1=O", "inhibition": "inactive: -1.1%"}, {"smiles": "O=C(OC1CN2CCC1CC2)C(CO)(c1ccccc1)c1ccccc1", "note": "(centres undefined)", "inhibition": "inactive: 6.6%"}, {"smiles": "CC(C)Oc1ccc(C(=O)NCC2(N(C)C)CCCCC2)cc1", "inhibition": "inactive: 9.8%"}, {"smiles": "CN(C)c1cccc(C(=O)NCC2(N(C)C)CCCCC2)c1", "inhibition": "inactive: -0.2%"}, {"smiles": "COc1ccc(Br)c(C(=O)NCC2(N3CCCCC3)CCCCC2)c1", "inhibition": "inactive: -4.2%"}, {"smiles": "COc1cc(C(=O)NCC2(N(C)C)CCCCC2)c([N+](=O)[O-])cc1OC", "inhibition": "inactive: 5%"}, {"smiles": "CN(C)C1(CNC(=O)c2ccc(Br)cc2)CCCCC1", "inhibition": "inactive: -2%"}, {"smiles": "O=C(NCC1(N2CCCCC2)CCCCC1)c1cccc(Cl)c1", "inhibition": "inactive: -4.9%"}, {"smiles": "COc1cccc(C(=O)NCC2(N3CCCCC3)CCCCC2)c1", "inhibition": "inactive: -6%"}, {"smiles": "COc1ccc(Cl)cc1C(=O)NCC1(N(C)C)CCCCC1", "inhibition": "inactive: 3.3%"}]}]}
